Data published in the Kinase Knowledgebase extract (Sharma et al. 2016).
Each block holds one compound with its values, some of them ahead of it.

Protein sequences, listed by entry. Tags and fused reporters are not part of them. Lines headed by an entry give the natural chain unless they say otherwise; changes in a name come on top.
UniProt O75116: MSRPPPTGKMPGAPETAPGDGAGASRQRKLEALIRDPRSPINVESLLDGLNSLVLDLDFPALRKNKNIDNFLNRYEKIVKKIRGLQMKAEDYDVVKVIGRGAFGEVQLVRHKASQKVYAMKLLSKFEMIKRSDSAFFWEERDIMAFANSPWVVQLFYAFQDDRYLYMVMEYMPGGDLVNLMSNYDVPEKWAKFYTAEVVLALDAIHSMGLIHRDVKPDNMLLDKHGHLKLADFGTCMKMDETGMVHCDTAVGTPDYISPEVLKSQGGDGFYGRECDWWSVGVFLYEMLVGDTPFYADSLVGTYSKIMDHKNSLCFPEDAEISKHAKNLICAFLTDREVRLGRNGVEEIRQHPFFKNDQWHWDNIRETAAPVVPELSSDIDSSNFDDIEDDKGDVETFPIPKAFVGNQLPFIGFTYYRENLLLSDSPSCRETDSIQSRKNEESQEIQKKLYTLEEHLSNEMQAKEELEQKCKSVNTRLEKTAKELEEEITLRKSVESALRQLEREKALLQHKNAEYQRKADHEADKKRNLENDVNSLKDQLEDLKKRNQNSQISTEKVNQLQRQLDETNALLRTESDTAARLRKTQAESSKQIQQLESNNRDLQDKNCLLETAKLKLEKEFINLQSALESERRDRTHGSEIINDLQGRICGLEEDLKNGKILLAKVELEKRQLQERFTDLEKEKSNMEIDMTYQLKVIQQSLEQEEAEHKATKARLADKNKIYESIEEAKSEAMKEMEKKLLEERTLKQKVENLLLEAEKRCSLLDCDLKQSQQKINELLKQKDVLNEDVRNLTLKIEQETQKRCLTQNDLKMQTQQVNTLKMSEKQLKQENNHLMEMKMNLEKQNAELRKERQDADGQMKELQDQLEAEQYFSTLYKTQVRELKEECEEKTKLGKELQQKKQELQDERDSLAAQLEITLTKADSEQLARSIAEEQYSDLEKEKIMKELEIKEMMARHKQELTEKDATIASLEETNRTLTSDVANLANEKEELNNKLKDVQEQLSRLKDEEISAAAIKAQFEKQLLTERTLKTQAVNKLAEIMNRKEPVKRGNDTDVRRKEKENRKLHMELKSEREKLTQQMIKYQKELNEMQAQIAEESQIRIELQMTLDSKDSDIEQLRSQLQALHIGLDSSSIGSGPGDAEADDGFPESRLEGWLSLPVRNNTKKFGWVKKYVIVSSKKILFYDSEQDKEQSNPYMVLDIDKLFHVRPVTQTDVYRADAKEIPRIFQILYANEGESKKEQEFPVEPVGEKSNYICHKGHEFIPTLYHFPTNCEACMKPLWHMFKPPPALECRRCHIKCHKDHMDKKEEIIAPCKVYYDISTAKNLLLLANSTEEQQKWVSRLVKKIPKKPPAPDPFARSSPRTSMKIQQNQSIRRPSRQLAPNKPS
UniProt P42338: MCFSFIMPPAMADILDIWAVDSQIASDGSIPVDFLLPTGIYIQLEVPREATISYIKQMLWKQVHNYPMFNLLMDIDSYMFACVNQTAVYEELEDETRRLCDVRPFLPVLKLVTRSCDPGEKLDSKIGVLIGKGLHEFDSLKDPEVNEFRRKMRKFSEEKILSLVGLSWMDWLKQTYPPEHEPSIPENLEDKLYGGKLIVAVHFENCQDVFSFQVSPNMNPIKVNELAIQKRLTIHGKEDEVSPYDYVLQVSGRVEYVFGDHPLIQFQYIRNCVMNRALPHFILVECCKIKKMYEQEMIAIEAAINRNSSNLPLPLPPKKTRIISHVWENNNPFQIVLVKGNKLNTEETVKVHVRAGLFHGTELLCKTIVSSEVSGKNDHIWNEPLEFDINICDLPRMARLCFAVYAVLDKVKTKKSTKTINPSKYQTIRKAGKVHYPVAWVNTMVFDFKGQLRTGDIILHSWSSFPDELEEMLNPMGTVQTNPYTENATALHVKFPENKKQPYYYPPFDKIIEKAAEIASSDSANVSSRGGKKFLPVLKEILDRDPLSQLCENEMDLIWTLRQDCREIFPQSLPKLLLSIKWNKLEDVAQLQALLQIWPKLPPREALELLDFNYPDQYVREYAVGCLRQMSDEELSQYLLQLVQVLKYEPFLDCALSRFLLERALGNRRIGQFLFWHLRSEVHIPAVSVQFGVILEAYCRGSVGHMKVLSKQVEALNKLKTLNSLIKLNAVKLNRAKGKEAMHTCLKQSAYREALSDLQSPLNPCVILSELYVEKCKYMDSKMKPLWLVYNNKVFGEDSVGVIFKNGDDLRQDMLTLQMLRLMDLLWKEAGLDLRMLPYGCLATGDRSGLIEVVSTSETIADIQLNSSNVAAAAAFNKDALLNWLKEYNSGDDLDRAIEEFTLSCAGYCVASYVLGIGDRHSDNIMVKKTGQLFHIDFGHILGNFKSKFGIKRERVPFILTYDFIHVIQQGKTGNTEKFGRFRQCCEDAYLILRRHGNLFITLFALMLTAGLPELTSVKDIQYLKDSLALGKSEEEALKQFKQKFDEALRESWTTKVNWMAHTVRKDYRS
UniProt Q16539, whole entry, looked up: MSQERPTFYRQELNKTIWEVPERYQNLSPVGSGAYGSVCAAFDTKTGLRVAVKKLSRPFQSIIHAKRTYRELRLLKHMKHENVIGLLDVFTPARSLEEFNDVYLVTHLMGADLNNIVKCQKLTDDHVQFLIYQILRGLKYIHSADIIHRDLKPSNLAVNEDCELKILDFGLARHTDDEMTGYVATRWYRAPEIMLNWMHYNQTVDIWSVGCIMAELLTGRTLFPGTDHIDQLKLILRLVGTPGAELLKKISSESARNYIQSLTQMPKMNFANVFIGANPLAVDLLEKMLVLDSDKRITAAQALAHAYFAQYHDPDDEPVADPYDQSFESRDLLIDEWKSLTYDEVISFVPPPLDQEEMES

What was measured:
[1] = biological target: CDK2 (UniProt P24941); experiment: Enzyme Assay
[2] = biological target: ROCK2 (human) (UniProt O75116); experiment: Assessment of ROCK2 Kinase Activity
[3] = biological target: PIK3CB (Human) (UniProt P42338); experiment: Enzyme Assay
[4] = biological target: MAPK14 (human) (UniProt Q16539); experiment: Inhibition of MAPK14 Kinase Activity

IC50 [1]: 5900 nM
SMILES: O=c1ccc2cnc(Nc3ccccc3)nc2n1CCCOCc1ccccc1

IC50 [1]: 100 nM
SMILES: C[S+]([O-])c1ccc(Nc2nc(OCC3CCCCC3)c3nc[nH]c3n2)cc1 (stereo not given)

IC50 [2]: 7 nM
SMILES: Cc1c[nH]c2nccc(Oc3ccc(Nc4cc(Cl)nc(N)n4)cc3F)c12

IC50 [3]: 534 nM
SMILES: O=c1cc(N2CCOCC2)oc2c(-c3ccccc3)cccc12

SMILES: CNC(=O)Nc1cnccc1COc1ccc(NC(=O)Nc2cc(C(C)(C)C)nn2-c2ccc(C)cc2)c2ccccc12
IC50 [4]: < 10 nM
